From PubChem BioAssay AID1159614 (National Center for Advancing Translational Sciences (NCATS), 2016)
This is a selection; strong and weak results do not stand in their true shares. Active and inactive are the calls of the source. Calls come from the whole dose curve; as a rule, active = well fitted activation curve with a large enough effect; inconclusive = small, poorly fitted or top-dose-only effect; inactive = no such curve, though single readings can be large or run the other way.

Chains of the proteins cited; added tags and fusions are not shown.
UniProt P54803, whole entry G286D: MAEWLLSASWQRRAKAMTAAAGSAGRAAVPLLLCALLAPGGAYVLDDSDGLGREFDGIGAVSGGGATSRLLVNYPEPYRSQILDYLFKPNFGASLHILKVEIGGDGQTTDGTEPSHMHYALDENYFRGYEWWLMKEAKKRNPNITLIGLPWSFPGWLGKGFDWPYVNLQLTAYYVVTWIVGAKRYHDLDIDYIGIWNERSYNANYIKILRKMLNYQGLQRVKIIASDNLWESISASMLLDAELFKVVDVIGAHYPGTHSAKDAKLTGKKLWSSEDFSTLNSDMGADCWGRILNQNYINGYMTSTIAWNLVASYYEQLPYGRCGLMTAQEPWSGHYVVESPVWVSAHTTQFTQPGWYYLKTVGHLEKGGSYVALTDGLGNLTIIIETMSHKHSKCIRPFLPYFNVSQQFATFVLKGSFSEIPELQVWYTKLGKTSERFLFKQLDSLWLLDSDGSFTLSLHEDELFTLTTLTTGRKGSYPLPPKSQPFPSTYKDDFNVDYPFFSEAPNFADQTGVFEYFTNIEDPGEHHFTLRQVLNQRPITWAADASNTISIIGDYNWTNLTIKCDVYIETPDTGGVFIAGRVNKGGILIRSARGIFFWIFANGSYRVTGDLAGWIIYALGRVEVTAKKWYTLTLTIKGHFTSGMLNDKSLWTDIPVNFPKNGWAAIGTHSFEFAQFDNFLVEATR

target: Galactocerebrosidase (Homo sapiens) (UniProt P54803); experiment: A Novel Cell-Based Assay to Identify Small Molecules for B -Galactocerebrosidase; conditions: 145M-Twi-hGALC-G270D cells (Twitcher mouse brain line with human GALC G270D), HMU-beta-Gal fluorescence, 48 h; at 57.5 µM (top of the series); note: 0% is about no effect; nearly all actives have a fitted effect of over 65% in size

Compound | activation
O=C(NCC1(N2CCOCC2)CCCCC1)c1ccccc1 | inactive: -15%
O=C(NCC1(N2CCOCC2)CCCCC1)c1ccc([N+](=O)[O-])cc1 | inactive: -3.71%
CCC(=O)N(c1ccccc1)C1CCNCC1 | inactive: -2.29%
COc1cc(C(=O)NCC2(N3CCOCC3)CCCCC2)cc(OC)c1OC | inactive: -6.65%
CC(C)(C)c1ccc(C(=O)NCC2(N3CCOCC3)CCCCC2)cc1 | inactive: -13.4%
Cc1ccccc1C(=O)NCC1(N(C)C)CCCCC1 | inactive: -7.41%
CN(C)C1(CNC(=O)c2ccc(C(C)(C)C)cc2)CCCCC1 | inactive: -3.14%
COc1ccccc1C(=O)NCC1(N2CCOCC2)CCCCC1 | inactive: -11.8%
O=C(NCC1(N2CCOCC2)CCCCC1)c1ccc(Cl)cc1 | inactive: 0.3%
CCOC(=O)N1CCC(=O)CC1 | inactive: -14.7%
CCCCOc1ccccc1C(=O)NCC1(N2CCOCC2)CCCCC1 | inactive: -5.22%
O=C(NCC1(N2CCOCC2)CCCCC1)c1ccccc1Br | inactive: 1.46%
CCCOc1cccc(C(=O)NCC2(N3CCOCC3)CCCCC2)c1 | inactive: -5.59%
CCOc1ccc(C(=O)NCC2(N3CCOCC3)CCCCC2)cc1 | inactive: 0.119%
